In experiment [1] the test system is Her2 receptor negative MDA-MB-231 cancer cells. The experiment can be described thus: In vitro cytotoxicity, MTT assay, 48 h, MDA-MB-231. The note with it: read-out: IC50 [nM] MDA-MB-231, 48 h incubation. How it is done:
(§1) 68) to the antibody at the C-terminus by NRVRRS (SEQ. ID NO. 57) linker). Cytotoxicity was compared to a naked antibody (antibody without a lytic peptide) in Her-2 receptor positive cells (SKBR-3 and SKOV-3, human breast and ovarian cancer cells, respectively) and Her-2 receptor negative breast cancer cells (MDA-MB-231).
(§2) Cells were prepared in 96 well plates using 2,000 cells/well and were allowed to attach for 48 hours. […] All data were processed and analyzed using Graph Pad Prizm 4™ software (Graph Pad Prizm, Inc).

The subject of experiment [2] is Her2 receptor positive SKOV-3 cancer cells. The experiment can be described thus: In vitro cytotoxicity, MTT assay, 48 h, SKOV-3. To be noted: read-out: IC50 [nM] SKOV-3, 48 h incubation. How it is done: as §1, §2
Experiment [3] deals with Her2 receptor positive SKBR-3 cancer cells. Kind of experiment: In vitro cytotoxicity, MTT assay, 48 h, SKBR-3. The note with it: read-out: IC50 [nM] SKBR-3, 48 h incubation. The method, then:
as §1, §2
A general note: Tetrazolium dyes change colour on reduction, which living cells bring about.

A value given as a limit tells only on which side of the number the result lay.

The term IC50 denotes the point on the concentration scale where inhibition reaches its midpoint.

In the case of “scFv-CH3-NRVRRS-(KLAKLAK)2KLAK (NRVRRSKLAKLAKKLAKLAKKLAK)”, the IC50 in experiment [1] was more than 1000 nM; in experiment [2], 247 ± 40.5 nM; in experiment [3], 338 ± 8.7 nM.

As for “scFv-CH3-GS-(KLAKLAK)2KLAK (GSKLAKLAKKLAKLAKKLAK)”, the results for the IC50 in experiment [1], in experiment [2] and in experiment [3] were more than 1000 nM, 235 ± 6.5 nM and 246 ± 41 nM, respectively.

(Values after US10729740B2, “Lytic-peptide-Her2/neu (Human Epidermal growth factor Receptor 2) ligand conjugates and methods of use” (Esperance Pharmaceuticals, Inc., priority 2010, dated 2020).)
